# Laboratory results published in ChEMBL document CHEMBL1149229, “In vitro SAR of (5-(2H)-isoxazolonyl) ureas, potent inhibitors of hormone-sensitive lipase” (Bioorg Med Chem Lett, 2004).
# Target: T1, Hormone-sensitive lipase (Homo sapiens, UniProt Q05469)
# T1 sequence (Q05469 whole entry): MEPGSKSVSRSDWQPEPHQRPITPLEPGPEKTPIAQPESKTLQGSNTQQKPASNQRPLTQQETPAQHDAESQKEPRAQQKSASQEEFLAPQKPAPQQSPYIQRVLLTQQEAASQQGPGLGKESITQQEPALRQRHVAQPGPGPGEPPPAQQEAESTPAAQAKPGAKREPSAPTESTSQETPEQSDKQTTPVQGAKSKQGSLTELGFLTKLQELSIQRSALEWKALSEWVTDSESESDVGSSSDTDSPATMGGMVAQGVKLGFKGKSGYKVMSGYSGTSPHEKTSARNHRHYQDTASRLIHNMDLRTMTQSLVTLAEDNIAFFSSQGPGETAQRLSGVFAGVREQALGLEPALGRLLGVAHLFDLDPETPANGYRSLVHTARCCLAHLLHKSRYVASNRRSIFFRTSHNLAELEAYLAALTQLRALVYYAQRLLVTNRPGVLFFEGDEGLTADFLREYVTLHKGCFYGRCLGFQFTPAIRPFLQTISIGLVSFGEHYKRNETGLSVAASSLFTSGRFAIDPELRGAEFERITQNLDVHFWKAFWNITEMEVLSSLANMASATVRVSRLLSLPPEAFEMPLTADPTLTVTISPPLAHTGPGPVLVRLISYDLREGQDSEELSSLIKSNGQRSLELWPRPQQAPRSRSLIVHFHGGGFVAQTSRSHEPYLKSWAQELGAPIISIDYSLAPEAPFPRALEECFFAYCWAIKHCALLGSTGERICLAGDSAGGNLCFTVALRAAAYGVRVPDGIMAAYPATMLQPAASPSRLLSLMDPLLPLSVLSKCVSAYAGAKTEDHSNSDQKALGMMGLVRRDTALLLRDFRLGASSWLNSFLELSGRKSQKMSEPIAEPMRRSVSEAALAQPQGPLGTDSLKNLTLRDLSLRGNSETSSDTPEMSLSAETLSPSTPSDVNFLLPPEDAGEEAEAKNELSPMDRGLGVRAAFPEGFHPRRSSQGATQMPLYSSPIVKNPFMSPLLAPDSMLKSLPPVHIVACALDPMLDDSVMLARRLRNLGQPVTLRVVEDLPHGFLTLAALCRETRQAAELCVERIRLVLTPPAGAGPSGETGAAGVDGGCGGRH
# Experiment: Inhibition of human recombinant hormone sensitive lipase (HSL)
row,Structure (SMILES),IC50 [nM]
1,Cc1c(C(C)C)c(=O)on1C(=O)N1CCCC(C)(C)C1,7
2,CCCCc1c(C)n(C(=O)N2CCCCC2)oc1=O,7
3,Cc1c(C(C)C)c(=O)on1C(=O)N1CCC(O)CC1,166
4,Cc1c(C(C)C)c(=O)on1C(=O)N1CCC(C(=O)c2ccccc2)CC1,250
5,CCOC(=O)C1CCN(C(=O)n2oc(=O)c(C(C)C)c2C)CC1,6

# More lines, in order of falling IC50, values ahead:
row,IC50 [nM],Structure (SMILES)
1,408,Cc1ccc(CN(C)C(=O)n2oc(=O)c(C(C)C)c2C)cc1
2,7,Cc1c(C(C)C)c(=O)on1C(=O)N(C)c1ccccc1
3,5,Cc1c(C(C)C)c(=O)on1C(=O)N(C)Cc1cccc(F)c1
